Patent US20170275650A1, “ENDOSOMAL ESCAPE DOMAINS FOR DELIVERY OF MACR[…] CELLS” (priority 2014, published 2017)
Entries after “also recorded” stand apart in the source; their conditions may differ.

Tested on: GFPβ1-10 expressing H1299c#G3 cells
Type: cell-based, human
Settings: FACS FSC/SSC and viable cell number relative to untreated control cells
Excerpt: Cell morphology and cell viability.

| Substance | cytotoxicity / morphological changes |
| --- | --- |
| RDHMVLHEYVNAAGIT-GGSGGC-(S-S)-CGG-RKKRRQRRR-(PEG)6-GWWWG [GFPβ11-(S-S)-TAT-P6-GWWWG] | dramatic increase in cytotoxicity that hampered uptake |
| RDHMVLHEYVNAAGIT-GGSGGC-(S-S)-CGG-RKKRRQRRR-(PEG)6-GFWG [GFPβ11-(S-S)-TAT-P6-GFWG] | no signs of cytotoxicity |
| RDHMVLHEYVNAAGIT-GGSGGC-(S-S)-CGG-RKKRRQRRR-(PEG)6-GFFFFG [GFPβ11-(S-S)-TAT-P6-FFFF] | adverse effects on cells, causing morphological changes and cell death |
| RDHMVLHEYVNAAGIT-GGSGGC-(S-S)-CGG-RKKRRQRRR-(PEG)6-GWWG [GFPβ11-(S-S)-TAT-P6-GWWG] | completely removed cellular toxicity; also recorded: absence of any detectable cytotoxicity |
